# Measured logP (octanol/water) values of organic chemicals

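OPERA's authors assembled the values from existing databases and did not measure them anew. One number stands for a compound and property, with no spread given. How each value was measured is not recorded, so precision varies. The measured form (salt, isomer or mixture) is not always the one drawn. Some entries may be limits or estimates that an upstream database listed as plain numbers.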

logP is the log10 of the octanol-water partition coefficient; higher is more lipophilic.
Cells with "–" have no entry in this list.

structure (SMILES),name,logP
C[C@]12C[C@H](N3CCOCC3)[C@@H](O)C[C@@H]1CC[C@@H]1[C@@H]2CC[C@]2(C)[C@@H](O)[C@@H](N3CCCC3)C[C@@H]12,–,4.6
ClCCOCOCCCl,Bis(2-chloroethoxy)methane,1.6
CCCCC(CC)COC(=O)OOC(C)(C)CC (stereo unspecified),Tert-Amyl peroxy 2-ethylhexyl carbonate,5.8
C=CCC1(CC(C)(C)C)C(=O)NC(=O)NC1=O,Nealbarbital,2.06
C[C@]12CC[C@H](O)CC1=C[C@@H](O)[C@H]1[C@@H]3[C@@H](O)CC(=O)[C@@]3(C)CC[C@@H]12,"(3beta,7alpha,15alpha)-3,7,15-Trihydroxy-androst-5-en-17-one",0.97
CO[C@]12C[C@@H](CO)CN(C)[C@@H]1Cc1c[nH]c3cccc2c13,"10Alpha-Methoxy-9,10-dihydrolysergol",0.8
CCCCCCCCCCCCCCCC[N+](C)(C)C.[Cl-],Hexadecyl trimethyl ammonium chloride,3.23
C=CC(=O)N(C)C,"N,N-Dimethylacrylamide",-0.24
C=CCc1ccc(OC)cc1,Estragole,3.4
Brc1ccc(Oc2ccc(Br)cc2)cc1,"4,4'-Dibromodiphenyl ether",5.67
Oc1cc(Cl)ccc1Oc1ccc(Cl)cc1,Soneclosan,4.6
CCCCCCCCCC[N+](C)(C)CCCCCCCCCC.[Cl-],Didecyldimethylammonium chloride,0.39
FC(F)C(F)(F)F,Pentafluoroethane,1.48
CC(COc1ccc(Oc2ccccc2)cc1)Oc1ccccn1 (stereo unspecified),Pyriproxyfen,5.135
C1CC(COCC2CO2)CCC1COCC1CO1 (stereo unspecified),–,2.29
C=CC(=O)NCO,N-Methylolacrylamide,-1.81
O=C(c1ccc(Cl)cc1)c1ccccn1,(4-Chlorophenyl) 2-pyridyl ketone,2.61
CC1(C)C(=O)NC(=S)NC1=O,"5,5-Dimethyl-2-thiobarbituric acid",0.5
CC(C)COP(=O)(OCC(C)C)OCC(C)C,Triisobutyl phosphate,3.71
COC1CC(OC2CCC3(CO)C4CCC5(C)C6(C=CC(=O)OC6)CCC5(O)C4CCC3(O)C2)OC(C)C1O (stereo unspecified),–,0.56
C[C@H]1CC(=O)C=C2CC[C@H]3[C@@H]4CC[C@H](O)[C@@]4(C)CC[C@@H]3[C@]21C,17beta-Hydroxy-1alpha-methylandrost-4-ene-3-one,2.92
C[C@]12C[C@@H](O)[C@H]3[C@@H](CCC4=CC(=O)CC[C@@H]43)[C@@H]1CCC2=O,"11alpha-Hydroxy-estr-4-ene-3,17-dione",0.967
CC(C)CC(C)N (stereo unspecified),"1,3-Dimethylbutylamine",1.2
FC(F)=C(F)C(F)=C(F)F,"Perfluoro-1,3-butadiene",2.24
C[C@H]1O[C@@H](O[C@H]2[C@@H](O)C[C@H](O[C@H]3CC[C@@]4(C)[C@H](CC[C@@H]5[C@@H]4C[C@@H](O)[C@]4(C)[C@@H](C6=CC(=O)OC6)CC[C@]54O)C3)O[C@@H]2C)C[C@H](O)[C@@H]1O,–,1.2
FCC(F)(F)F,"1,1,1,2-Tetrafluoroethane",1.06
NC1CCC(CC2CCC(N)CC2)CC1 (stereo unspecified),"4,4'-Diaminodicyclohexylmethane",2.115
CCOP(=S)(S)OCC,"O,O-Diethyl dithiophosphate",-0.77
O=C1c2ccccc2C(=O)C1C(=O)C(c1ccccc1)c1ccc(Cl)cc1 (stereo unspecified),Chlorophacinone,4.2
CC1CC(CC2CCC(N)C(C)C2)CCC1N (stereo unspecified),Bis(4-amino-3-methylcyclohexyl)methane,2.5
[Cr+3].[NH-]c1c(/N=N/c2cc([N+](=O)[O-])cc([N+](=O)[O-])c2[O-])cc(S(=O)(=O)[O-])c2ccccc12.[NH-]c1c(/N=N/c2cc([N+](=O)[O-])cc([N+](=O)[O-])c2[O-])cc(S(=O)(=O)[O-])c2ccccc12.[Na+].[Na+].[Na+],–,-4.02
CCC1(c2ccc(N)cc2)CCC(=O)NC1=O (stereo unspecified),Aminoglutethimide,1.3
CC(C)(C)CC(C)(C)OO,"Hydroperoxide, 1,1,3,3-tetramethylbutyl",2.9
C#CCOc1ccc(CCNC(=O)C(OCC#C)c2ccc(Cl)cc2)cc1OC (stereo unspecified),Mandipropamid,3.2
O=c1[nH]c2ccccc2c(=O)o1,"2H-3,1-Benzoxazine-2,4(1H)-dione",1.26
OCCCC(F)(F)C(F)(F)F,3-(Perfluoroethyl)propanol,1.59
Nc1ccc(Cl)cc1C(=O)c1ccccc1,2-Amino-5-chlorobenzophenone,3.16
CC(C)(C)OOC(C)(C)CCC(C)(C)OOC(C)(C)C,"2,5-Dimethyl-2,5-di-(tert-butylperoxy)hexane",7.34
CC1CCC2CC1(OO)C2(C)C (stereo unspecified),"Hydroperoxide, 2,6,6-trimethylbicyclo[3.1.1]heptyl",2.85
NCCc1ccc(O)cc1,Tyramine,0.72
COc1ccc(CCN2CCC(Nc3nc4ccccc4n3Cc3ccc(F)cc3)CC2)cc1,Astemizole,5.8
O=C1OC(=O)c2c(Cl)c(Cl)c(Cl)c(Cl)c21,–,3.145
C(COCC1CO1)OCC1CO1 (stereo unspecified),Ethylene glycol diglycidyl ether,-0.654
CC(C)(C)OOC(=O)c1ccccc1,tert-Butyl perbenzoate,3
CCNC1=Nc2ccc(Cl)cc2C(C)(c2ccccc2)O1 (stereo unspecified),Etifoxine,4.09
CCC(=O)OC(Cc1ccccc1)(c1cccc(OC)c1)C(C)CN(C)C.O=C(O)CC(=O)O (stereo unspecified),–,3.83
C1CCC(NC2CCCCC2)CC1,Dicyclohexylamine,3.5
CC(=O)O[C@H]1[C@@H](N2CCCC2)C[C@H]2[C@@H]3CC[C@H]4C[C@H](O)[C@@H](N5CCOCC5)C[C@]4(C)[C@H]3CC[C@@]21C,–,3.9
O=C(Cc1ccccc1)OCc1ccccc1,Benzyl phenylacetate,3.479

Excerpt, the final 6 entries:

structure (SMILES)	name	logP
CC(C)(C)OOC(=O)c1ccccc1	tert-Butyl perbenzoate	3
CCNC1=Nc2ccc(Cl)cc2C(C)(c2ccccc2)O1 (stereo unspecified)	Etifoxine	4.09
CCC(=O)OC(Cc1ccccc1)(c1cccc(OC)c1)C(C)CN(C)C.O=C(O)CC(=O)O (stereo unspecified)	–	3.83
C1CCC(NC2CCCCC2)CC1	Dicyclohexylamine	3.5
CC(=O)O[C@H]1[C@@H](N2CCCC2)C[C@H]2[C@@H]3CC[C@H]4C[C@H](O)[C@@H](N5CCOCC5)C[C@]4(C)[C@H]3CC[C@@]21C	–	3.9
O=C(Cc1ccccc1)OCc1ccccc1	Benzyl phenylacetate	3.479

Source: data files of OPERA 2.9 (Mansouri et al.), github.com/kmansouri/OPERA.